Reference: publication PMC10146558, “Highly Cytotoxic Copper(II) Mixed-Ligand Quinolinonato Complexes: Pharmacokinetic Properties and Interactions with Drug Metabolizing Cytochromes P450” (Pharmaceutics, 2023)

Test system: CYP3A4/5
Assay: CYP3A4/5 activity (testosterone 6β-hydroxylation) in human liver microsomes
Settings: Dixon and Lineweaver–Burk plots

O.O.O.O=[N+]([O-])[O-].O=[N+]([O-])[O-].[Cu+2] [copper(II) nitrate trihydrate, reference compound]
Type of inhibition, CYP3A4/5 (testosterone 6β-hydroxylation): non-competitive
